Data as given in PubChem BioAssay AID2097 (Broad Institute, 2009).
This is a selection; strong and weak results do not stand in their true shares. Active and inactive are the calls of the source.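 Rule for the calls: active = more than half of replicate wells score below -50%, meaning over 50% inhibition versus plate controls; inconclusive = some replicates but at most half score below -50%; inactive = no replicate scores below -50%.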

Sequences of proteins named here, by UniProt entry; tags and fusion partners are left off. A change or cut given only in a name is not applied to a line headed by its entry.
UniProt P49841: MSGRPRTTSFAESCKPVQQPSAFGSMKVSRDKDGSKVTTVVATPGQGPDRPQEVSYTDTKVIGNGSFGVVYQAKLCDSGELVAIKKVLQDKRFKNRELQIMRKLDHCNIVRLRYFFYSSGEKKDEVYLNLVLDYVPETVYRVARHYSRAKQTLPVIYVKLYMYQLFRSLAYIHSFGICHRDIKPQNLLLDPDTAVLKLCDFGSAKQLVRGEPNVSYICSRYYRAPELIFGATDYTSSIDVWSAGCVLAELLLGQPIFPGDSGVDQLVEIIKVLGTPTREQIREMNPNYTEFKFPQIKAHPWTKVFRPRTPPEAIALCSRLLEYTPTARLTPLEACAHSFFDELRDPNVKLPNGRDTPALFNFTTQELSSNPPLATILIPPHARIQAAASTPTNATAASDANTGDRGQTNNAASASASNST

Target: Glycogen synthase kinase-3 beta (Homo sapiens) (UniProt P49841)
Assay: blockers of GSK3B enzyme activity – biochemical, cell-free homogeneous, HTS, primary screen (AID 2097);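 note: 0% = median DMSO wells and -100% = median GW8510 positive control wells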
Settings: GST-GSK3beta kinase, ADP-Glo luminescence, 60 min; at 10 µM; stronger effect = lower value

Compound | activity score (negative = inhibition)
COc1cc(C(=O)NCC2(N3CCOCC3)CCCCC2)cc(Cl)c1OC(C)C | inactive: 3.48%
O=[As](O)(O)c1cccnc1 | inactive: 1.06%
O=C(OC1CN2CCC1CC2)c1ccc(Cl)cc1 (centres undefined) | inactive: 2.11%
CN(C(=O)Cc1ccc(Cl)c(Cl)c1)[C@H]1CC[C@@]2(CCCO2)C[C@@H]1N1CCCC1 | inactive: -0.539%
CN(C)C(=O)c1cc([N+](=O)[O-])cc2c1-c1c(cc([N+](=O)[O-])cc1[N+](=O)[O-])C2=O | inactive: 0.0979%
O=[N+]([O-])c1ccc2c(c1)nnn2O | inactive: -1.59%
CN(C(=O)Cc1ccccc1)[C@@H]1CC[C@]2(CCCO2)C[C@H]1N1CCCC1 | inactive: 5.5%
CCOP1(=S)c2c(C)nn(CCC#N)c2N=C(c2ccc(F)cc2)N1C (centres undefined) | inactive: -3.67%
N#CCCN(C(=O)COC(=O)C(O)(c1ccccc1)c1ccccc1)c1ccc(F)cc1 | inactive: -1.3%
NC(=O)Nc1ccc([As](=O)(O)O)cc1 | inactive: -4.26%
Nc1ccccc1[As](=O)(O)c1ccccc1 | inactive: -0.183%
O=C(O)COc1ccc([As](=O)(O)O)cc1[N+](=O)[O-] | inactive: 1.41%
CS(=O)(=O)c1cc([N+](=O)[O-])c2no[n+]([O-])c2c1 | inactive: -3.94%
O=P(Nc1nccs1)(c1ccccc1)c1nc2ccccc2s1 (centres undefined) | inactive: -0.55%
O=P(Nc1nccs1)(Oc1ccccc1)Oc1ccccc1 | inactive: -0.41%
CCOP1(=S)c2c(C)nn(CCC#N)c2N=C(c2ccccc2F)N1C (centres undefined) | inactive: -0.117%
O=[N+]([O-])c1cc([N+](=O)[O-])c(-c2ccn[nH]2)s1 | inactive: 0.403%
CCN(CC)C(=S)SC(NC=O)C(Cl)(Cl)Cl (centres undefined) | inactive: -1.44%
CC(C)NC(=O)NP(=O)(Oc1ccccc1)Oc1ccccc1 | inactive: -0.192%
CC(C)c1ccc(OP(=O)(Nc2ccccn2)Oc2ccccc2F)cc1 (centres undefined) | inactive: 1.35%
ClCCSc1nnc(-c2cccnc2)o1 | inactive: -0.105%
Cc1ccc2nc3c(c(C)c2c1)CC(C(Cl)Cl)S3 (centres undefined) | inactive: 1.32%

Compound | activity score (negative = inhibition)
Cc1ccc(OP(=O)(Nc2ccc([N+](=O)[O-])cn2)Oc2ccc(C)cc2)cc1 | inactive: 4.91%
C[As](=O)(O)c1cccc(C(=O)O)c1 | inactive: 0.686%
O=[As](O)(c1ccc(O)cc1)c1ccccc1O | inactive: -0.00534%
COc1ccc(N/C(=N/P(=O)(N2CCOCC2)N2CCOCC2)N2CCOCC2)cc1 | inactive: 0.012%
COc1cc(I)ccc1[As](=O)(O)O | inactive: -1.61%
COc1ccc2nc(NP(=O)(c3ccccc3)c3ccccc3)sc2c1 | inactive: 4.45%
Cc1cc(=O)[nH]c(N[N+](=O)[O-])n1 | inactive: -1.15%
O=C(OC1CN2CCC1CC2)C12CC3CC(CC(C3)C1)C2 (centres undefined) | inactive: -10.3%
Cc1c2c(nc3ccccc13)SC(C(Cl)Cl)C2 (centres undefined) | inactive: 0.244%
CCC(C)N(CC(C)C)C(=S)SC(NC(C)=O)C(Cl)(Cl)Cl (centres undefined) | inactive: -0.429%
CCOC(=O)c1ccc(NC(=O)C(C)(CCl)SC)cc1 (centres undefined) | inactive: 0.597%
O=C(OC1CN2CCC1CC2)c1cccc([N+](=O)[O-])c1 (centres undefined) | inactive: 0.525%
O=C(Nc1ccncc1[N+](=O)[O-])c1ccc([N+](=O)[O-])cc1[N+](=O)[O-] | inactive: -7.74%
O=C(COc1ccccc1)OC1CN2CCC1CC2 (centres undefined) | inactive: 4.4%
COP1(=S)c2c(C)nn(CCC#N)c2N=C(c2ccc(F)cc2)N1C (centres undefined) | inactive: -0.537%
O=[N+]([O-])c1ccc(Nc2ccc(Oc3ccc([N+](=O)[O-])cc3[N+](=O)[O-])cc2)c([N+](=O)[O-])c1 | inactive: -1.61%
O=P(Nc1ccccn1)(c1cccc2ccccc12)c1cccc2ccccc12 | inactive: -4.86%
Cc1cc(SC(NC=O)C(Cl)(Cl)Cl)ncn1 (centres undefined) | inactive: -1.43%
CCOC(=O)Nc1cccc([As](=O)(O)O)c1 | inactive: 0.674%
Cc1cc(SC(NC(=O)c2ccccc2)C(Cl)(Cl)Cl)nc(C(C)C)n1 (centres undefined) | inactive: -0.859%
CCCCOc1ccc(C(=O)NCC2(N3CCCCC3)CCCCC2)cc1OC | inactive: -0.124%
CCOC(=O)Nc1ccc([As](=O)(O)O)c(O)c1 | inactive: -20.2%
